Nrf2 block – Nrf2 pathway inhibition | AID 504444 | A549 ARE-Fluc reporter, luciferase luminescence, 18-24 h | actives 2.1% (n = 360,000) | Potency, µM (titrated, usually from 46 µM), for inactives: top-dose activity change, negative = inhibition, actives largely listed as inhibitors; further: potency means the concentration at half of the fitted maximal effect; on the % scale 0 is the no-effect control and ±100 the full control effect; nearly all actives have a fitted effect of over 60% in size
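A549 ARE_Fluc cells (5000/well, 5% FBS OPTI-MEM) pre-incubated 2 h, then treated with compounds 18-24 h at 37C/5% CO2 in concentration-response. CellTiter-Fluor viability read first; BugLite luciferase luminescence after 15 min at room temperature gives Nrf2 activity.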
ClpP mod – qHTS Assay for Activators of ClpP; ATP-dependent Clp protease proteolytic subunit (Bacillus subtilis (strain 168)), P80244; purified B. subtilis ClpP, FRET peptide cleavage, 20 min; Potency, µM (highest dose often 57.5 µM), for the others: top-dose activity change, negative = active; actives 1.9% (n = 340,000); AID 651965, 2013; active means well fitted falling curve with a large enough effect; inconclusive means small, poorly fitted or top-dose-only effect; inactive means no such curve, though single readings can be large or run the other way; further: potency means the concentration at half of the fitted maximal effect; the source files actives as falling curves though it sought activators and does not explain the sign; nearly all actives have a fitted effect of over 65% in size
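ClpP 10 microg/mL final, pH 8 Tris/KCl buffer with BSA, glycerol, Tween-20; compound pinned in; FRET-FV substrate; RT 20 min; Ex320/Em430; ΔFRET vs ADEP 5.8 microM, DMSO, no enzyme.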
Nrf2 activator – Nrf2 pathway activation | AID 624171 | Potency, µM (series often up to 46.1 µM), for inactives: at the highest dose activation, actives largely listed as activators | AREc32 ARE-luciferase reporter (MCF7-derived line), luminescence, 24 h | actives 0.31% (n = 410,000); further: potency means the concentration at half of the fitted maximal effect; % of control where 0% means no effect; nearly all actives have a fitted effect of over 65% in size
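Reporter line AREc32 (ARE-Fluc), seeded overnight in OPTI-MEM with 5% FBS; compound pin-transferred, 24 hr at 37 deg C, 5% CO2; luminescent read-out.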
miR-21 FLuc – miR-21 reporter, rising signal | HeLa miR-21 FLuc reporter, luciferase, 48 h | Potency, µM (highest dose often 38.3 µM), for inactives: at the top dose reporter change, positive = more light | 340,000 tested, under 10 active | AID 2288; active = well fitted rising curve with a large enough effect; inconclusive = small, poorly fitted or top-dose-only effect; inactive = no such curve, though single readings can be large or run the other way;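 further: % of control where 0% means no effect; miR-21 action dims this reporter so a rising signal means less miR-21 action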
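Using DMEM plus 10% FBS, HeLa miR-21-FLuc cells are incubated with test compounds (final up to about 40uM) for 48 hours; firefly luciferase signal is then imaged following reagent-mediated lysis.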
p53 reactivator – re-activators of mutant p53; H1299 p53-A138V BP100-luciferase reporter, luminescence, 24 h; actives 0.063% (n = 320,000); AID 504706; Potency, µM (titrated, usually from 92.2 µM), without a hit: at the top dose activity change, positive = activation, most hits filed as activators; further: potency means the concentration at half of the fitted maximal effect; % of control where 0% means no effect; nearly all actives have a fitted effect of over 45% in size
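H1299 (p53-null), stable ts p53-A138V + BP100-Luc; 1000 cells/well, Opti-MEM/10% FBS; cpd 4 pt, 1:5; 24 h, 37 deg C, 5% CO2; detection reagent 10 min RT; luminescence.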
A549 tox – A549 cytotoxicity, counter-screen for Nrf2 inhibitors | A549 ARE-Fluc cells, CellTiter-Fluor viability, 18-24 h | Potency, µM (doses to about 46 µM), for inactives: at the highest dose activity change, negative = cytotoxicity, usual class: inhibitors | actives 0.16% (n = 390,000); further: potency means the concentration at half of the fitted maximal effect; on the % scale 0 is the no-effect control and ±100 the full control effect
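A549 ARE_Fluc cells in 5% FBS OPTI-MEM were exposed to compounds in concentration-response for 18-24 h at 37 deg C. Viability was read by CellTiter-Fluor fluorescence (Ex 405/Em 525) after 30 min, before the luciferase read.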
The depositor's hits bear a star. This is a sample that favours compounds with a hit; in the whole collection about 3.7% have one here. Unless noted, the call rests on the fitted dose curve; in most records, active means well fitted curve in the direction sought with a large enough effect; inconclusive means small, poorly fitted or top-dose-only effect, or another doubt; inactive means no such curve, though single readings can be large; an effect the other way counts as inactive or inconclusive.

What do the screens show for `O=C(C=Cc1ccccc1O)c1ccccc1O`?
Nrf2 block: 5.4%; Nrf2 activator: 14.1µM*; A549 tox: -1.0%

What do the screens show for `CCCCOc1ccc(C(=O)Nc2onc3c2CCCC3)cc1`?
Nrf2 block: inconclusive; ClpP mod: 1.8%; Nrf2 activator: 18.8%; miR-21 FLuc: -10.2%; A549 tox: 0.8%

How did N#CC(C(=O)NCCc1ccccc1)c1nc2ccccc2nc1N1CCCCC1 (stereo not given) do in these assays?
Nrf2 block: 6.0%; ClpP mod: -3.1%; Nrf2 activator: 0.0%; miR-21 FLuc: -2.5%; p53 reactivator: 1.8%; A549 tox: 1.8%

Results for CCOC(=O)N1CCN(c2nc3ccccc3nc2C(C#N)C(=O)NCCc2ccccc2)CC1 (stereo not given) ?
Nrf2 block: -25.3%; ClpP mod: 14.1µM*; Nrf2 activator: -0.1%; miR-21 FLuc: -0.2%; p53 reactivator: -3.9%; A549 tox: -2.9%

How did Cc1cc2c(s1)c1cnn(Cc3cccc(C(F)(F)F)c3F)c(=O)c1n2C do in these assays?
Nrf2 block: -7.4%; A549 tox: 0.0%

Results for COc1ccccc1C(=O)NNC(=O)c1cccc(Cl)c1 ?
Nrf2 block: inconclusive; ClpP mod: 1.0%; Nrf2 activator: inconclusive; miR-21 FLuc: -27.2%; p53 reactivator: 6.5%; A549 tox: 4.8%

How did COc1cc(NC(=O)c2cccc(Br)c2)nc(OC)n1 do in these assays?
Nrf2 block: 5.6%; Nrf2 activator: 14.1µM*; miR-21 FLuc: -40.8%; p53 reactivator: 1.3%; A549 tox: 0.5%

How did COc1ccccc1C(=O)NNC(=O)c1cccc(Br)c1 do in these assays?
Nrf2 block: inconclusive; ClpP mod: 1.0%; Nrf2 activator: 6.31µM*; miR-21 FLuc: -52.7%; A549 tox: 15.6%

Results for CCOC(=O)CCc1cc(F)c(S(=O)(=O)N2CCN(S(=O)(=O)c3ccc4c(c3)OCCO4)CC2)cc1F ?
Nrf2 block: 2.6%; A549 tox: -1.5%

Results for C=CCn1c(O)c(N=NC(=S)Nc2ccc(OC)cc2)c2ccccc21 ?
Nrf2 block: inconclusive; ClpP mod: 22.4µM*; Nrf2 activator: 0.1%; miR-21 FLuc: 22.2%; p53 reactivator: 2.9%; A549 tox: inconclusive

Results for c1ccc(CN(Cc2ccccc2)Cc2nnc(-c3cc4ccccc4[nH]3)o2)cc1 ?
Nrf2 block: 14.8%; A549 tox: -0.3%

Results for CC(=O)Nc1ccc(S(=O)(=O)NC2(C(F)(F)F)C(=O)Nc3c2c(=O)[nH]c(=O)n3-c2cccc(Cl)c2)cc1 (stereo not given) ?
Nrf2 block: -1.5%; ClpP mod: -8.7%; Nrf2 activator: 0.5%; miR-21 FLuc: 2.7%; A549 tox: -0.4%

How did COc1cc(/C=C(\C#N)C(=O)N2CCOCC2)ccc1OCc1ccccc1 do in these assays?
Nrf2 block: -5.3%; Nrf2 activator: 5.7%; miR-21 FLuc: -36.1%; p53 reactivator: inconclusive; A549 tox: -1.0%

Results for COc1ccc(/C=C(\C#N)C(=O)N2CCOCC2)cc1Br ?
Nrf2 block: -16.8%; ClpP mod: 25.1µM*; Nrf2 activator: 2.2%; miR-21 FLuc: -3.6%; p53 reactivator: 4.6%; A549 tox: -9.3%

What do the screens show for `CN(C)S(=O)(=O)c1ccc(N2CCCC2)c(C(=O)Nc2nc3c(ccc4ccccc43)s2)c1`?
Nrf2 block: inconclusive; ClpP mod: 28.2µM*; Nrf2 activator: 2.3%; miR-21 FLuc: 0.2%; p53 reactivator: -9.0%; A549 tox: -1.3%

What do the screens show for `Cc1cnc(NC(=O)c2cc(S(=O)(=O)N(C)C)ccc2N2CCCC2)s1`?
Nrf2 block: inconclusive; Nrf2 activator: 4.3%; p53 reactivator: -17.6%; A549 tox: inconclusive

What do the screens show for `Cc1nn(-c2ccccc2)c2c1N(CC(=O)NCc1ccc(N(C)C)cc1)C(=O)CS2`?
Nrf2 block: inconclusive; ClpP mod: -2.1%; Nrf2 activator: -0.6%; miR-21 FLuc: 2.1%; A549 tox: -0.2%

What do the screens show for `O=C(NCc1ccccc1)c1ccc2c(c1)N(Cc1ccccc1F)C(=O)c1ccccc1S2=O` (stereo not given)?
Nrf2 block: -26.9%; ClpP mod: -2.8%; Nrf2 activator: 2.2%; miR-21 FLuc: -1.9%; A549 tox: -4.4%

What do the screens show for `CCOc1ccc2nc(NC3=NC(C)(C)C=C(C)N3)nc(C)c2c1`?
Nrf2 block: 18.6%; ClpP mod: -4.1%; Nrf2 activator: 3.4%; miR-21 FLuc: 14.0%; p53 reactivator: 14.1%; A549 tox: 4.0%

What do the screens show for `CCOc1ccc2c(C)nc(NC3=NC(C)(C)C=C(C)N3)nc2c1`?
Nrf2 block: -7.0%; ClpP mod: 3.98µM*; Nrf2 activator: 1.9%; miR-21 FLuc: 3.1%; p53 reactivator: -1.0%; A549 tox: -13.4%

What do the screens show for `CCOc1ccc2nc(NC3=NC(c4ccc(OC)cc4)CC(=O)N3)nc(C)c2c1` (stereo not given)?
Nrf2 block: -19.2%; ClpP mod: 31.6µM*; Nrf2 activator: 18.6%; miR-21 FLuc: -11.1%; p53 reactivator: -11.6%; A549 tox: inconclusive

How did COc1ccc(NC(=O)N[C@H]2CC[C@@H](CC(=O)NC3CCC3)O[C@@H]2CO)cc1 do in these assays?
ClpP mod: 1.3%

What do the screens show for `COc1ccc(N(Cc2cc3cc(C)ccc3[nH]c2=O)C(C)=O)cc1`?
Nrf2 block: 2.4%; ClpP mod: -26.8%; Nrf2 activator: -0.5%; miR-21 FLuc: -1.2%; p53 reactivator: inconclusive; A549 tox: -0.9%

What do the screens show for `COc1ccc2[nH]c(=O)c(CN(C(C)=O)c3cccc(C)c3)cc2c1`?
Nrf2 block: inconclusive; ClpP mod: 35.5µM*; Nrf2 activator: -0.7%; miR-21 FLuc: -2.7%; p53 reactivator: -1.0%; A549 tox: -0.3%

How did COc1ccc2[nH]c(=O)c(CN(C(C)=O)C3CCCCC3)cc2c1 do in these assays?
Nrf2 block: inconclusive; ClpP mod: 31.6µM*; Nrf2 activator: 0.4%; miR-21 FLuc: -4.4%; p53 reactivator: 26.9%; A549 tox: -0.7%

How did CCOC(=O)CCCCCC(=O)Nc1ccc2c(c1)CC(=O)N([C@@H](C)CO)C[C@H](C)[C@@H](CN(C)C(=O)Nc1ccc3c(c1)OCO3)O2 do in these assays?
Nrf2 block: inconclusive; ClpP mod: -0.4%; Nrf2 activator: 2.8%; p53 reactivator: 5.0%; A549 tox: 1.5%

Reprinted at random: 2 compounds from above.
Results for CCOC(=O)CCc1cc(F)c(S(=O)(=O)N2CCN(S(=O)(=O)c3ccc4c(c3)OCCO4)CC2)cc1F ?
Nrf2 block: 2.6%; A549 tox: -1.5%

How did COc1ccc(NC(=O)N[C@H]2CC[C@@H](CC(=O)NC3CCC3)O[C@@H]2CO)cc1 do in these assays?
ClpP mod: 1.3%

Among those listed so far, these contain a CF3 group:
How did Cc1cc2c(s1)c1cnn(Cc3cccc(C(F)(F)F)c3F)c(=O)c1n2C do in these assays?
Nrf2 block: -7.4%; A549 tox: 0.0%

Results for CC(=O)Nc1ccc(S(=O)(=O)NC2(C(F)(F)F)C(=O)Nc3c2c(=O)[nH]c(=O)n3-c2cccc(Cl)c2)cc1 (stereo not given) ?
Nrf2 block: -1.5%; ClpP mod: -8.7%; Nrf2 activator: 0.5%; miR-21 FLuc: 2.7%; A549 tox: -0.4%
